# AlphaSeq binding of Ab-14 light chain variants to a spike HR2 peptide

Reference: Li et al. 2023, doi:10.1038/s41467-023-39022-2. File: FLAb, binding data.

Antigen: PDVDLGDISGINAS, a 14-residue peptide of the SARS-CoV-2 spike HR2 region.

Each scFv is VH, three GGGGS repeats, VL, as in the parent Ab-14, and differs from it in the CDRs of the light chain only.
VH: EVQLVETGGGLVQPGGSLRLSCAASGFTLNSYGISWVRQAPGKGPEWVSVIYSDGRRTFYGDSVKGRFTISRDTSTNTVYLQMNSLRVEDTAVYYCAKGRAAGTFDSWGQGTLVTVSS
VL: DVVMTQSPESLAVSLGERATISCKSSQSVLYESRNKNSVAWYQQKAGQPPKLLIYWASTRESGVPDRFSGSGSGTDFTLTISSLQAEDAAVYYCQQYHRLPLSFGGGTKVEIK

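The variants were designed computationally from a first round of random CDR variants and then made and measured. Several design methods are mixed in this list. AlphaSeq pools MATa yeast showing the antibodies with MATalpha yeast showing the peptide. The frequency of each diploid, read from paired DNA barcodes, reflects how well the two displayed proteins bind. Each replicate has its own calibration line, from reference interactions of the BCL2 family. The assay was run in six technical replicates.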

Each variant is given by its three light chain CDRs, as the data file delimits them; those of the parent are KSSQSVLYESRNKNSVA, WASTRES, QQYHRLPLS. Values are log10 of the apparent Kd in nM; lower means stronger binding. The mean shown is taken over the replicates in which the pair was detected. Where no diploid with the target was found in any replicate, the entry reads "nd": below detection, most likely a poor binder, though not proof of it. Three control strains display no target. For all light chain designs, 4% of the pairings with them gave a signal, with a median of 2.64 and one signal in twenty below 1.59, so weak values seen in few replicates may be background.

With MLLQATMYGERNRNSVA | HAQTRED | QQYHRLPLI the result was 0.62 (6 of 6 replicates).
With KLSISGLYESRNKNSVA | EASTRES | QQYHRLPLS the result was -0.23 (6 of 6 replicates).
With QIYQAMHTLMQVKNNIA | DVTNRNQ | QQYHRLPLS the result was 0.84 (6 of 6 replicates).
With KVEQGVLYESRNKNSVA | GASTRES | QQYHRLPLS the result was -0.13 (6 of 6 replicates).
With KLSQSDLYESRNKNSVA | NASTREK | QQYHRLPLS the result was -0.05 (6 of 6 replicates).
With KSSQSVLYESRNKNSVA | WASTRES | QQYHRLPPS the result was 1.99 (4 of 6 replicates).
With QLSSITGHLSVEKNNVA | EMETREN | QQYDRLPLA the result was 1.34 (4 of 6 replicates).
With KFSQSVLYDSHNKNSVA | WASTRES | QQYHRLPLS the result was 0.42 (6 of 6 replicates).
With QLELVQSGDTISENSVA | HAEVSGR | QQYSQLPLI the result was nd (0 of 6 replicates).
With MISDLTMYGSVNKNSVA | DLSTRGS | QQYHRLPLS the result was 0.04 (6 of 6 replicates).
With KSSPSVLSESSNKNSVA | GASTRRS | QQAHRLPLS the result was 2.34 (2 of 6 replicates).
With TISELYNQALGMRNNVA | NNQTRED | QQYDRLPLS the result was 3.60 (5 of 6 replicates).
With KYSQSVEVESRNKNSVA | SASTRES | QQYVRLPLY the result was -0.38 (6 of 6 replicates).
With KSSPVVLYESMNKNSVA | NASTRMS | QQYHRLPLS the result was 0.58 (6 of 6 replicates).
With KMSQAWWYESRMKWSVA | NASERES | QQYHRLPLS the result was 0.12 (6 of 6 replicates).
With IVSQLMLWGYHAKNSIA | EAQTRLN | QQYDRLPLW the result was 2.16 (2 of 6 replicates).
With KLPQSELYESRNKNSVA | NASTREQ | QQYHRLPLS the result was -0.40 (6 of 6 replicates).
With KISQMVRVGATVSNSIA | EEVTRAN | QQYHRLPLS the result was 0.52 (6 of 6 replicates).
With MFDQHTMNEMDKNNAVA | EVTHLVN | QQYAQLPLI the result was 1.08 (6 of 6 replicates).
With HLSHMSGVESVKHNSVA | ENSTREN | QQYDRLPLS the result was 2.09 (5 of 6 replicates).
With KTSQKVLYESRNKNSVA | AASTRES | QQTHRLPLF the result was 0.30 (6 of 6 replicates).
With KSSQSVLYESRQKNSVA | EASTRES | QQYHRLPLS the result was 0.34 (6 of 6 replicates).
With KISQVAMMTGKLKNSVA | NAYTRVQ | QQYHRLPLS the result was 0.83 (6 of 6 replicates).
With KLSQSVKYEDRNWNNVA | AASKRES | QAYHRLPLS the result was 0.27 (6 of 6 replicates).
With KSSQSVLYESRNKNSVA | AASTRES | QQYHRLPLT the result was 3.29 (1 of 6 replicates).
With MITAMLRGVGRDKNSVA | NAQTREN | QHYNRLPLS the result was 1.93 (6 of 6 replicates).
With KLQQSMLYESRNKNSVA | NASTRMS | QQYHRLPLS the result was -0.25 (6 of 6 replicates).
With KLTQTMRFETKNKNNIA | EVAERLK | QQYFRLPLA the result was 0.07 (6 of 6 replicates).
With KLSQSMLYESRNVNNVA | SASTRES | QQYHRLPLM the result was -0.28 (6 of 6 replicates).
With KLQQSMLYESRNKNSVA | QASQREV | QQYHRLPLS the result was -0.20 (6 of 6 replicates).

A sequence measured in both rounds can read differently, since the two assays cover different ranges. The authors' rule: three or more of the six replicates give a measured affinity, fewer mean a poor binder.